Test results taken from PubChem BioAssay AID248 (DTP/NCI, 2004).
Values joined by “and” are separate entries in the source; they are usually repeats but may differ in a detail not shown here. Equal entries are not always repeated. Inconclusive results and toxic doses are left out.

Test system: L1210 leukemia ip in BDF1 mice, survival T/C
Experiment: NCI In Vivo Anticancer Drug Screen. Data for tumor model L1210 Leukemia (intraperitoneal) in B6D2F1 (BDF1) mice
Conditions: higher = longer survival

CN(Cc1cnc2nc(N)nc(N)c2n1)c1ccc(C(=O)N[C@@H](CCC(=O)O)C(=O)O)cc1 was tested, and the T/C (endpoint: mean survival time, dose: 0.04 mg/kg/injection, schedule: Q01DX Z (ip), vehicle: saline) was 106 % of control, the T/C (endpoint: mean survival time, dose: 0.05 mg/kg/injection, schedule: Q03HX008 (ip), vehicle: sodium bicarbonate) was 103 % of control and the T/C (endpoint: mean survival time, dose: 0.05 mg/kg/injection, schedule: Q## X008 (other), vehicle: sodium bicarbonate) was 103 % of control. For the same compound, the T/C (endpoint: mean survival time, dose: 0.13 mg/kg/injection, schedule: Q03HX008 (ip), vehicle: other) was 103 % of control, the T/C (endpoint: mean survival time, dose: 0.25 mg/kg/injection, schedule: Q01DX Z (sc), vehicle: saline) was 121 % of control and the T/C (endpoint: mean survival time, dose: 0.49 mg/kg/injection, schedule: Q03HX002 (ip), vehicle: other) was 103 % of control. The T/C (endpoint: mean survival time, dose: 0.49 mg/kg/injection, schedule: Q03HX007 (ip), vehicle: other) was 103 % of control, the T/C (endpoint: mean survival time, dose: 0.73 mg/kg/injection, schedule: Q03HX008 (ip), vehicle: other) was 121 % of control and the T/C (endpoint: mean survival time, dose: 0.75 mg/kg/injection, schedule: Q## X018 (ip), vehicle: other) was 114 % of control. The T/C (endpoint: mean survival time, dose: 0.9 mg/kg/injection, schedule: Q04DX003 (ip), vehicle: other) was 106 % of control, the T/C (endpoint: mean survival time, dose: 1.0 mg/kg/injection, schedule: Q01DX001 (ip), vehicle: saline) was 103 % of control and the T/C (endpoint: mean survival time, dose: 1.0 mg/kg/injection, schedule: Q01DX006 (iv), vehicle: saline) was 121 % of control. For the same compound, the T/C (endpoint: mean survival time, dose: 1.0 mg/kg/injection, schedule: Q01DX009 (oral), vehicle: other) was 114 % of control, the T/C (endpoint: mean survival time, dose: 1.0 mg/kg/injection, schedule: Q01DX Z (ip), vehicle: other) was 211 % of control and the T/C (endpoint: mean survival time, dose: 1.08 mg/kg/injection, schedule: Q01DX009 (ip), vehicle: sodium bicarbonate) was 172 % of control. For the same compound, the T/C (endpoint: mean survival time, dose: 1.08 mg/kg/injection, schedule: Q01DX Z (sc), vehicle: other) was 172 % of control, the T/C (endpoint: mean survival time, dose: 1.1 mg/kg/injection, schedule: Q03HX004 (ip), vehicle: other) was 106 % of control and the T/C (endpoint: mean survival time, dose: 1.5 mg/kg/injection, schedule: Q01DX015 (ip), vehicle: carboxymethylcellulose (CMC)) was 216 % of control. The T/C (endpoint: mean survival time, dose: 1.5 mg/kg/injection, schedule: Q01DX Z (ip), vehicle: other) was 211 % of control, the T/C (endpoint: mean survival time, dose: 1.62 mg/kg/injection, schedule: Q01DX001 (ip), vehicle: other) was 106 % of control and the T/C (endpoint: mean survival time, dose: 1.87 mg/kg/injection, schedule: Q01DX015 (ip), vehicle: water) was 216 % of control. The T/C (endpoint: mean survival time, dose: 2.0 mg/kg/injection, schedule: Q01DX009 (ip), vehicle: sodium bicarbonate) was 162 % of control, the T/C (endpoint: mean survival time, dose: 2.16 mg/kg/injection, schedule: Q## X032 (ip), vehicle: water) was 162 % of control and the T/C (endpoint: mean survival time, dose: 2.25 mg/kg/injection, schedule: Q01DX015 (ip), vehicle: water) was 211 % of control. For the same compound, the T/C (endpoint: mean survival time, dose: 2.82 mg/kg/injection, schedule: Q02DX005 (ip), vehicle: other) was 216 % of control, the T/C (endpoint: mean survival time, dose: 3.0 mg/kg/injection, schedule: Q01DX009 (ip), vehicle: saline + Tween-80 + alkali) was 103 % of control and the T/C (endpoint: mean survival time, dose: 3.0 mg/kg/injection, schedule: Q01DX009 (ip), vehicle: water) was 211 % of control. For the same compound, the T/C (endpoint: mean survival time, dose: 3.0 mg/kg/injection, schedule: Q01DX017 (ip), vehicle: other) was 216 % of control, the T/C (endpoint: mean survival time, dose: 3.38 mg/kg/injection, schedule: Q01DX Z (ip), vehicle: carboxymethylcellulose (CMC)) was 151 % of control and the T/C (endpoint: mean survival time, dose: 5.3 mg/kg/injection, schedule: Q01DX007 (ip), vehicle: other) was 153 % of control. For the same compound, the T/C (endpoint: mean survival time, dose: 6.0 mg/kg/injection, schedule: Q01DX003 (ip), vehicle: other) was 172 % of control, the T/C (endpoint: mean survival time, dose: 6.0 mg/kg/injection, schedule: Q02DX008 (ip), vehicle: water) was 211 % of control and the T/C (endpoint: mean survival time, dose: 6.0 mg/kg/injection, schedule: Q03HX007 (ip), vehicle: other) was 106 % of control. For the same compound, the T/C (endpoint: mean survival time, dose: 7.0 mg/kg/injection, schedule: Q07DX003 (ip), vehicle: saline) was 121 % of control, the T/C (endpoint: mean survival time, dose: 8.0 mg/kg/injection, schedule: Q01DX Z (im), vehicle: saline) was 153 % of control and the T/C (endpoint: mean survival time, dose: 12.0 mg/kg/injection, schedule: Q03DX006 (ip), vehicle: saline) was 172 % of control. For the same compound, the T/C (endpoint: mean survival time, dose: 13.0 mg/kg/injection, schedule: Q03HX003 (ip), vehicle: other) was 153 % of control, the T/C (endpoint: mean survival time, dose: 13.5 mg/kg/injection, schedule: Q## X008 (ip), vehicle: other) was 106 % of control and the T/C (endpoint: mean survival time, dose: 15.0 mg/kg/injection, schedule: Q04DX004 (ip), vehicle: sodium bicarbonate) was 172 % of control. The T/C (endpoint: mean survival time, dose: 16.0 mg/kg/injection, schedule: Q08DX002 (ip), vehicle: other) was 121 % of control, the T/C (endpoint: mean survival time, dose: 18.0 mg/kg/injection, schedule: Q## X004 (ip), vehicle: water) was 162 % of control and the T/C (endpoint: mean survival time, dose: 20.0 mg/kg/injection, schedule: Q01DX001 (ip), vehicle: other) was 121 % of control. For the same compound, the T/C (endpoint: mean survival time, dose: 20.0 mg/kg/injection, schedule: Q04DX003 (ip), vehicle: sodium bicarbonate) was 114 % of control, the T/C (endpoint: mean survival time, dose: 20.0 mg/kg/injection, schedule: Q12HX003 (ip), vehicle: other) was 106 % of control and the T/C (endpoint: mean survival time, dose: 24.0 mg/kg/injection, schedule: Q03DX006 (ip), vehicle: saline) was 211 % of control. The T/C (endpoint: mean survival time, dose: 30.0 mg/kg/injection, schedule: Q01DX002 (ip), vehicle: other) was 153 % of control, the T/C (endpoint: mean survival time, dose: 35.0 mg/kg/injection, schedule: Q## X004 (ip), vehicle: water) was 162 % of control and the T/C (endpoint: mean survival time, dose: 39.0 mg/kg/injection, schedule: Q01DX001 (ip), vehicle: water) was 151 % of control. The T/C (endpoint: mean survival time, dose: 45.0 mg/kg/injection, schedule: Q04DX003 (ip), vehicle: other) was 153 % of control, the T/C (endpoint: mean survival time, dose: 45.0 mg/kg/injection, schedule: Q04DX004 (ip), vehicle: other) was 153 % of control and the T/C (endpoint: mean survival time, dose: 58.0 mg/kg/injection, schedule: Q01DX001 (ip), vehicle: water) was 153 % of control. For the same compound, the T/C (endpoint: mean survival time, dose: 60.0 mg/kg/injection, schedule: Q04DX004 (ip), vehicle: other) was 162 % of control, the T/C (endpoint: mean survival time, dose: 64.0 mg/kg/injection, schedule: Q01DX001 (ip), vehicle: other) was 121 % of control and the T/C (endpoint: mean survival time, dose: 64.0 mg/kg/injection, schedule: Q01DX001 (oral), vehicle: other) was 103 % of control. The T/C (endpoint: mean survival time, dose: 75.0 mg/kg/injection, schedule: Q## X004 (ip), vehicle: water) was 216 % of control, the T/C (endpoint: mean survival time, dose: 100.0 mg/kg/injection, schedule: Q03HX002 (ip), vehicle: other) was 121 % of control and the T/C (endpoint: mean survival time, dose: 160.0 mg/kg/injection, schedule: Q01DX001 (ip), vehicle: saline) was 114 % of control. The T/C (endpoint: mean survival time, dose: 375.0 micrograms/kg/injection, schedule: Q01DX009 (ip), vehicle: sodium bicarbonate) was 114 % of control, the T/C (endpoint: mean survival time, dose: 750.0 micrograms/kg/injection, schedule: Q01DX009 (ip), vehicle: Klucel (hydroxypropylcellulose) (HPC)) was 153 % of control and the T/C (endpoint: mean survival time, dose: 1500.0 micrograms/kg/injection, schedule: Q01DX009 (ip), vehicle: Klucel (hydroxypropylcellulose) (HPC)) was 151 % of control. The T/C (endpoint: mean survival time, dose: 3000.0 micrograms/kg/injection, schedule: Q01DX009 (ip), vehicle: Klucel (hydroxypropylcellulose) (HPC)) was 151 % of control and 153 % of control, the T/C (endpoint: mean survival time, dose: 3000.0 micrograms/kg/injection, schedule: Q01DX009 (ip), vehicle: sodium bicarbonate) was 121 % of control and the T/C (endpoint: median survival time, dose: 0.39 mg/kg/injection, schedule: Q01DX009 (ip), vehicle: sodium bicarbonate) was 153 % of control. For the same compound, the T/C (endpoint: median survival time, dose: 0.75 mg/kg/injection, schedule: Q01DX017 (ip), vehicle: other) was 211 % of control, the T/C (endpoint: median survival time, dose: 1.08 mg/kg/injection, schedule: Q01DX009 (ip), vehicle: other) was 162 % of control and the T/C (endpoint: median survival time, dose: 2.5 mg/kg/injection, schedule: Q01DX009 (ip), vehicle: other) was 211 % of control. For the same compound, the T/C (endpoint: median survival time, dose: 3.0 mg/kg/injection, schedule: Q01DX033 (ip), vehicle: sodium bicarbonate) was 162 % of control and the T/C (endpoint: median survival time, dose: 50.0 mg/kg/injection, schedule: Q04DX003 (ip), vehicle: saline) was 172 % of control.
